The list shows a part of the results, in another mix than the full data. The source made the active and inactive calls. No stated cut-off is given here; in the data, active means TR-FRET ratio above about 2000; inactive means the rest.
Assay: TR-FRET detection interference compounds, artefact control for PPARgamma SRC-3 recruitment agonists, biochemical, TR-FRET ratio (AID 1048)
Conditions: TR-FRET artefact counter-screen, PPARgamma/SRC-3 format; at 8 µM; stronger effect = higher value

Row | SMILES | TR-FRET ratio
1 | c1ccc(-c2nn[nH]n2)c(-c2nn[nH]n2)c1 | inactive: 1540
2 | O=C(NC1CCS(=O)(=O)C1)NP(=S)(Oc1ccccc1)Oc1ccccc1 (configuration not stated) | inactive: 1610
3 | CCNC(=S)/N=C(\N)N[N+](=O)[O-] | inactive: 1600
4 | O=c1c2cc([N+](=O)[O-])ccc2[nH]c2c([N+](=O)[O-])cc([N+](=O)[O-])cc12 | inactive: 1490
5 | CC(=O)NC(SC(=S)N(CC(C)C)CC(C)C)C(Cl)(Cl)Cl (configuration not stated) | inactive: 1480
6 | Cc1ccc(OP(=O)(Nc2ccccn2)Oc2ccc(C)cc2)cc1 | inactive: 1410
7 | CC(C)(C)C(=O)NC(Sc1ccccc1)C(Cl)(Cl)Cl (configuration not stated) | inactive: 1630
8 | CCOc1ccc(C2=NCC(CBr)S2)cc1 (configuration not stated) | inactive: 1880
9 | CC(=O)Nc1ccc(Oc2c([N+](=O)[O-])cc([N+](=O)[O-])cc2[N+](=O)[O-])cc1 | inactive: 1550
10 | CC(C)C(=O)NC(Sc1ccccc1)C(Cl)(Cl)Cl (configuration not stated) | inactive: 1530
11 | O=P(Nc1ccccn1)(c1ccc(Br)cc1)c1ccc(Br)cc1 | inactive: 1570
12 | C(Cc1nn[nH]n1)Cc1nn[nH]n1 | inactive: 1560
13 | CC(=O)NC(SC(=S)N(C)C)C(Cl)(Cl)Cl (configuration not stated) | inactive: 1480
14 | O=[N+]([O-])c1ncn(CCn2ncnc2[N+](=O)[O-])n1 | inactive: 1610
15 | O=[N+]([O-])c1cc([N+](=O)[O-])c(CCNc2ccccc2)c([N+](=O)[O-])c1 | inactive: 1660
16 | Cc1ccc(NP(=O)(Oc2ccccc2)Oc2ccccc2)nc1 | inactive: 1460
17 | COc1ccc(C2=NCC(CBr)S2)cc1 (configuration not stated) | inactive: 1460
18 | CN(C)C(=O)OCCc1n(C)cc[n+]1C | inactive: 1300
19 | CC(C)=N/N=C(\N)N[N+](=O)[O-] | inactive: 1470
20 | CCN(/C(=N/P(=O)(N1CCOCC1)N1CCOCC1)N1CCOCC1)c1ccc(OC)cc1 | inactive: 1740
21 | Clc1ccc(Cl)c(NC2=NCC(CBr)S2)c1 (configuration not stated) | inactive: 1450
22 | COc1ccccc1OP(=O)(Nc1ccc(C)cn1)Oc1ccccc1OC | inactive: 1590
23 | Cc1ccc(N/C(=N/P(=O)(N2CCOCC2)N2CCOCC2)N2CCOCC2)cc1 | inactive: 1710
24 | NC(=O)c1cc([N+](=O)[O-])cc([N+](=O)[O-])c1N | inactive: 1320

Row | SMILES | TR-FRET ratio
25 | O=C(NC(Sc1ccncn1)C(Cl)(Cl)Cl)c1ccccc1 (configuration not stated) | inactive: 1460
26 | Cc1cc(SC(NC(=O)c2ccc(F)cc2)C(Cl)(Cl)Cl)ncn1 (configuration not stated) | inactive: 1500
27 | CCN(N=Nc1nonc1N)c1nonc1N | inactive: 1420
28 | Cc1ccc2nc3c(c(C)c2c1)CC(C(Cl)Cl)S3 (configuration not stated) | inactive: 1600
29 | O=[N+]([O-])c1cc([N+](=O)[O-])c(-c2ccn[nH]2)s1 | inactive: 1620
30 | CC(C)NC(=O)NP(=O)(Oc1ccccc1)Oc1ccccc1 | inactive: 1530
31 | COc1ccc2nc(NP(=O)(c3ccccc3)c3ccccc3)sc2c1 | inactive: 1490
32 | Cc1c2c(nc3ccccc13)SC(C(Cl)Cl)C2 (configuration not stated) | inactive: 1480
33 | Cc1cc(=O)[nH]c(N[N+](=O)[O-])n1 | inactive: 1400
34 | COc1ccc(N/C(=N/P(=O)(N2CCOCC2)N2CCOCC2)N2CCOCC2)cc1 | inactive: 1650
35 | Cc1cc(SC(NC(=O)c2ccccc2)C(Cl)(Cl)Cl)nc(C(C)C)n1 (configuration not stated) | inactive: 1750
36 | Cc1cc(SC(NC=O)C(Cl)(Cl)Cl)ncn1 (configuration not stated) | inactive: 1520
37 | O=P(Nc1ccccn1)(c1cccc2ccccc12)c1cccc2ccccc12 | inactive: 1410
38 | CN(C)C1(CNC(=O)c2ccc(S(C)(=O)=O)cc2)CCCCC1 | inactive: 1520
39 | CC1CCC(C(C)C)C(OP(=O)(Nc2ccccn2)c2ccccc2)C1 (configuration not stated) | inactive: 1460
40 | CN(C(=O)Cc1ccc(Cl)c(Cl)c1)[C@@H]1CCCC[C@H]1N1CCCC1 | inactive: 1490
41 | CC(C)/C=N\N=C(\N)N[N+](=O)[O-] | inactive: 1430
42 | COc1cc(C(=O)NCC2(N3CCOCC3)CCCCC2)cc(Cl)c1OC(C)C | inactive: 1660
43 | CCOP(=O)(Nc1cccc2ccccc12)OCC | inactive: 1670
44 | COc1cc(C2NCCC3(OCCO3)C2(C)C)cc(OC)c1OC (configuration not stated) | inactive: 1530
45 | Cc1ccc(NCCc2c([N+](=O)[O-])cc([N+](=O)[O-])cc2[N+](=O)[O-])cc1 | inactive: 1530
46 | O=P(Nc1nccs1)(c1ccccc1)c1nc2ccccc2s1 (configuration not stated) | inactive: 1500
47 | O=P(Nc1nccs1)(Oc1ccccc1)Oc1ccccc1 | inactive: 1530

From PubChem BioAssay AID1048 (The Scripps Research Institute Molecular Screening Center, 2008)
